Source: ChEMBL document CHEMBL1122516, “Structure-activity relationships for reactivators of organophosphorus-inhibited acetylcholinesterase: quaternary salts of 2-[(hydroxyimino)methyl]imidazole” (1984)

Sequences of proteins named here, by UniProt entry; tags and fusion partners are left off. A change or cut given only in a name is not applied to a line headed by its entry.
UniProt O42275: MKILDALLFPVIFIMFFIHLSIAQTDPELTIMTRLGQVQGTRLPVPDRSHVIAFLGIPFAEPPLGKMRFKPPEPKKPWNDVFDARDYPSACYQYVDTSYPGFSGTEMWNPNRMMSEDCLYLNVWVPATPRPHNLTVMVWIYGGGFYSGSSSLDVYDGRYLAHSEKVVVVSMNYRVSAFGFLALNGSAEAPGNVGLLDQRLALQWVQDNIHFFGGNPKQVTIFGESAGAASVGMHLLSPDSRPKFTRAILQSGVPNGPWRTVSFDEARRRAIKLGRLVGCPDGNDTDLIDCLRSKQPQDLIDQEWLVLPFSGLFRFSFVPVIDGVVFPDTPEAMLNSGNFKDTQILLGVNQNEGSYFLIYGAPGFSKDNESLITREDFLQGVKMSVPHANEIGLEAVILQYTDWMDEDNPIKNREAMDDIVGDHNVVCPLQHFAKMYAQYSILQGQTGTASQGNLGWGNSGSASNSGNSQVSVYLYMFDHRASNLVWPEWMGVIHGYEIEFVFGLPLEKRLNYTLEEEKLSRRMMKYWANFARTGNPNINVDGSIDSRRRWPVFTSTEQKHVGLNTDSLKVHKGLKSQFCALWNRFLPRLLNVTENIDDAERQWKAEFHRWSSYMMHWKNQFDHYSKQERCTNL

Molecular target: Acetylcholinesterase (Electrophorus electricus) (UniProt O42275)
Experiment: The compound was tested for % of maximum reactivation for GD-inhibited Eel AChE (Acetylcholinesterase) by oximes

COC[n+]1ccn(C)c1/C=N/O
Rmax: 15%
